Among the data in ChEMBL document CHEMBL1155057, “Studies toward the discovery of the next generation of antidepressants. Part 6: Dual 5-HT1A receptor and serotonin transporter affinity within a class of arylpiperazinyl-cyclohexyl indole derivatives” (Bioorg Med Chem, 2008) are Ki values, retold here.

The chains behind the UniProt entries cited, without tags or fusion partners.
UniProt P31652, whole entry: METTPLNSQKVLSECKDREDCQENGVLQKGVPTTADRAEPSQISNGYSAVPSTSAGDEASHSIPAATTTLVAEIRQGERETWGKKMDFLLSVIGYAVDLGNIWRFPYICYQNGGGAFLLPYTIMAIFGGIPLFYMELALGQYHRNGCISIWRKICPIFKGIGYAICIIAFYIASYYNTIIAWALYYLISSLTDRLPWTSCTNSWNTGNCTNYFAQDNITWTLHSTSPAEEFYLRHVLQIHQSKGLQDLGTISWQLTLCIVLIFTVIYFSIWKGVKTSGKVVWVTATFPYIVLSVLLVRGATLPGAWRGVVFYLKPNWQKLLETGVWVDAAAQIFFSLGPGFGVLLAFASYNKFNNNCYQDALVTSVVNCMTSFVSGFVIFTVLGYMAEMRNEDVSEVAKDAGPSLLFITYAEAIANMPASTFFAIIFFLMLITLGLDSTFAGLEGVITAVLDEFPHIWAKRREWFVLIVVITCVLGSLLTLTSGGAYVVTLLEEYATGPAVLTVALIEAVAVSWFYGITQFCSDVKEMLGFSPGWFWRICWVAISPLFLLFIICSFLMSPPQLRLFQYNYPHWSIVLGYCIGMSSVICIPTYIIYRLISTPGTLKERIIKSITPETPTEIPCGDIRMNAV

The assay deals with Sodium-dependent serotonin transporter (Rattus norvegicus, UniProt P31652).
A word on the Ki: it is a measure of affinity in units of concentration, obtained from inhibition or displacement. A low value points to tighter binding. For the compound `Fc1ccc2[nH]cc([C@H]3CC[C@H](N4CCN(c5cccc6cccnc56)CC4)CC3)c2c1`, the Ki is 39.3 nM.
`Cn1cc([C@H]2CC[C@@H](N3CCN(c4cccc5[nH]ccc45)CC3)CC2)c2cc(C#N)ccc21` had a Ki of 3.3 nM.
`CCCn1cc([C@H]2CC[C@H](N3CCN(c4cccc5[nH]ccc45)CC3)CC2)c2cc(C#N)ccc21` displayed a Ki of 62.5 nM.
As to `Fc1ccc2[nH]cc([C@H]3CC[C@@H](N4CCN(c5cccc6cccnc56)CC4)CC3)c2c1`, the affinity corresponds to a Ki of 4.6 nM.
In turn, `CCn1cc([C@H]2CC[C@H](N3CCN(c4cccc5[nH]ccc45)CC3)CC2)c2cc(C#N)ccc21` showed a Ki of 58.2 nM.
Regarding `Cn1cc([C@H]2CC[C@H](N3CCN(c4cccc5[nH]ccc45)CC3)CC2)c2cc(C#N)ccc21`, the Ki was 102 nM.
Turning to `CCCn1cc([C@H]2CC[C@@H](N3CCN(c4cccc5[nH]ccc45)CC3)CC2)c2cc(C#N)ccc21`, affinity was put at a Ki of 26.7 nM.
With `CCn1cc([C@H]2CC[C@@H](N3CCN(c4cccc5[nH]ccc45)CC3)CC2)c2cc(C#N)ccc21` the figure was 13.4 nM.
